Measured values as given in patent EP1143955B1, “A COMBINATION OF FBPase INHIBITORS AND INSULIN SENSITIZERS FOR THE TREATMENT OF DIABETES” (priority 1998, dated 2000).

System: ZDF rat
Assay: Combination treatment with Rosiglitazone and Compound G in the ZDF rat - blood glucose (Example R)
Assay type: in vivo, Zucker Diabetic Fatty (ZDF) rat
Conditions: Rosiglitazone 0.0045%, Compound G 0.2% food admixture, 25 days; rats with blood glucose >600 mg/dl

CN(CCOc1ccc(CC2SC(=O)NC2=O)cc1)c1ccccn1 (stereo not shown) [Rosiglitazone]
Change in Blood glucose, mg/dl (day 25 vs day 0): -107 ± 78 mg/dL
